The text below walks through data of patent US4668689A, “Glutarimide derivatives for treating oestrogen-dependent tumors” (National Research Development Corporation, priority 1984, dated 1987).

By UniProt entry, the sequences of proteins in these tests, tags left out. Where a name states a change or a piece, a line headed by the entry shows the natural chain unless it says otherwise.
UniProt P11511: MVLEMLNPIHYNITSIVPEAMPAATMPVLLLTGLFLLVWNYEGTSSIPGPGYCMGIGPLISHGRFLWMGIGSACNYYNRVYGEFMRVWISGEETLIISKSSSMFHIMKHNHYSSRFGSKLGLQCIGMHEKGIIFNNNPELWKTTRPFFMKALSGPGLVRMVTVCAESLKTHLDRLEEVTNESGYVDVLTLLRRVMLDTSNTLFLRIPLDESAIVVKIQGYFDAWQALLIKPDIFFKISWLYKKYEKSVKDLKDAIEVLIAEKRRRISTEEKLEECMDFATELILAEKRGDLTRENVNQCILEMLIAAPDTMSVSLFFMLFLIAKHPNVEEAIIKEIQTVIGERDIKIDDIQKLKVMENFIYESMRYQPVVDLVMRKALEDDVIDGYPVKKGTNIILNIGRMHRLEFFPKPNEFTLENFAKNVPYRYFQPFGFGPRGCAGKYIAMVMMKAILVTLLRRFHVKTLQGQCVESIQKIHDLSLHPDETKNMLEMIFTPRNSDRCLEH

Test [1] concerns the target aromatase (Homo sapiens, UniProt P11511). The test can be described thus: Aromatase inhibition, (1,2-^3H) testosterone as substrate ([…]), microsomal fraction of human placental tissue. The following applies: read-out: IC50 Aromatase Testosterone, 30° C., "None" = no inhibition.
Test [2] has as its system aromatase. The following applies: cited from earlier work.

One may read the IC50 as the concentration needed to halve the response being measured. For the compound `CCCCN1C(=O)CCC(CC)(c2ccncc2)C1=O` (centres unmarked), on aromatase [1], the IC50 is 40 µM.
For `CCC1(c2ccc(N)cc2)CCC(=O)NC1=O` (centres unmarked) [Aminoglutethimide], in the test with aromatase [2], the “inhibition in vivo of aromatase in peripheral tissue” value was “inhibit in vivo the activity of the enzyme aromatase in peripheral tissue”.
Regarding `CCCCCCCCCCN1C(=O)CCC(CC)(c2ccncc2)C1=O` (centres unmarked), the IC50 at aromatase [1] stood at 10 µM.
The same measure, in the same setting: with `CCCCC1(c2ccncc2)CCC(=O)NC1=O` (centres unmarked) [R1=n-C4 H9, R2=H] the figure was 4 µM; with `CCCC1(c2ccncc2)CCC(=O)NC1=O` (centres unmarked) [R1=n-C3 H7, R2=H], 6 µM.
